Source: patent publication US20110183980A1, “O-BENZYL NICOTINAMIDE ANALOGS AS MGLUR5 POSITIVE ALLOSTERIC MODULATORS” (priority 2009, published 2011)

Sequences of proteins named here, by UniProt entry; tags and fusion partners are left off. Residues count along the entry.
UniProt P31424, 21-1203 limits assumed: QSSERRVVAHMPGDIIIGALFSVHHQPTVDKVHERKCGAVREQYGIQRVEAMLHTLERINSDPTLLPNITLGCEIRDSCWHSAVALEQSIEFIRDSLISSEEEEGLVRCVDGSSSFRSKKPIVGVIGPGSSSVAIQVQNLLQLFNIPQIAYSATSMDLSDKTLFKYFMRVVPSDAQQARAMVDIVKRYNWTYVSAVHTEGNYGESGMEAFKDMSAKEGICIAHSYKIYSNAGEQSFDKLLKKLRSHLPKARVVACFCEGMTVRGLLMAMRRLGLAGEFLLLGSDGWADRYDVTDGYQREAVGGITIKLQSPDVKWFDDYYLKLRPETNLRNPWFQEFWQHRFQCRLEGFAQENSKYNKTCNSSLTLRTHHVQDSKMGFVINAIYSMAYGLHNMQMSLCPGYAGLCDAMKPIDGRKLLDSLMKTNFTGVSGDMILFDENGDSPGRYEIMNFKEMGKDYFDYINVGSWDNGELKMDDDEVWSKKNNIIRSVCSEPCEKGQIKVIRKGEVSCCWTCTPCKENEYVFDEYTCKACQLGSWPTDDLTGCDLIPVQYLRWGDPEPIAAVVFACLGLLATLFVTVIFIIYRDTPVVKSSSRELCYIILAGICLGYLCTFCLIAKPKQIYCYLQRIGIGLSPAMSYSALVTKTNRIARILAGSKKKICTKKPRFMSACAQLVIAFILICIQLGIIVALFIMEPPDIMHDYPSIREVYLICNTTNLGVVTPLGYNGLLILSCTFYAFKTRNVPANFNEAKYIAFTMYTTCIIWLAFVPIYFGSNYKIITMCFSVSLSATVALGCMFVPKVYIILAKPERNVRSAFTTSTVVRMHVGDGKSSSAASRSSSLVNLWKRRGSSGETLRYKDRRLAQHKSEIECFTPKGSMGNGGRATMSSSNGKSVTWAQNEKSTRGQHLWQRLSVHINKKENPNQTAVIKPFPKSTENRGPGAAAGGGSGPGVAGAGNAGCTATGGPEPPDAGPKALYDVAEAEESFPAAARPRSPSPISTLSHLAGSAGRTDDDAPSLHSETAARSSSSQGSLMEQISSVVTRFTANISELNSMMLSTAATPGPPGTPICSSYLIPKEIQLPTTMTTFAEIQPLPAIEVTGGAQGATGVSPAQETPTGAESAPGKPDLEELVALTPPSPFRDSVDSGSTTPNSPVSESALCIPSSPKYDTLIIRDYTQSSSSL

Target: rat mGluR5 (Rattus norvegicus, UniProt P31424)
Assay: Potentiation of glutamate response, Ca2+ fluorescence (FDSS) in HEK cells transfected with rat mGluR5
Conditions: read-out: EC50 as an mGluR5 potentiator
Procedure: Human embryonic kidney (HEK) cells transfected with rat mGluR5 were plated in clear bottom assay plates for assay in a Functional Drug Screening System (FDSS). The cells were loaded with a Ca^2+-sensitive fluorescent dye (e.g., Fluo-4), and the plates were washed and placed in the FDSS instrument. After establishment of a fluorescence baseline for twelve seconds, the compounds of the present invention were added to the cells, and the response in cells was measured. Five minutes later, an mGluR5 agonist (e.g., glutamate, 3,5-dihydroxyphenylglycine, or quisqualate) was added to the cells, and the response of the cells was measured. […]
The above described assay operated in two modes. […] If a compound acted as a potentiator, an EC50 value for potentiation and a maximum extent of potentiation by the compound at this concentration of agonist was determined by non-linear curve fitting. In the second mode, several fixed concentrations of the present compounds were added to various wells on a plate, followed by a range of concentrations of agonist for each concentration of present compound; the EC50 values for the agonist at each concentration of compound were determined by non-linear curve fitting. […]

**Q.** With `C[C@H](NC(=O)c1ccc(OCc2cccc(F)c2)nc1)C1CCCCC1` as the compound, how does the EC50 read?
**A.** > 10 µM
